{"sequences": {"note": "Amino acid sequences for entries named in this document (tags omitted). A change or cut given only in a name is not applied to a line headed by its entry.", "UniProt Q96LD8": "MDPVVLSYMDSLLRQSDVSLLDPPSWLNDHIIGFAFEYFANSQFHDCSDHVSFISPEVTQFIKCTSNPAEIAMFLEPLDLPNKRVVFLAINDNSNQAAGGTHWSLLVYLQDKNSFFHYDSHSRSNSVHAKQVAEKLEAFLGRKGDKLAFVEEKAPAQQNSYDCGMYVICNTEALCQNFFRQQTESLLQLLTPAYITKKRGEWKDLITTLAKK"}, "source": "PubChem BioAssay AID2540", "about": "(Sanford-Burnham Center for Chemical Genomics, 2010)", "note": "The entries are a selection whose mix differs from that of the whole data set. Activity calls are given as the source filed them. Rule as the data show it: active = inhibition above about 50%; inactive = the rest.", "data": [{"molecular_target": "Sentrin-specific protease 8 (Homo sapiens) (UniProt Q96LD8)", "assay": "blockers of human SENP8 peptidase activity – biochemical, luminescence, primary screen (AID 2540)", "conditions": "purified SENP8, Z-RLRGG-aminoluciferin cleavage, at 10 µM, stronger effect = higher value", "values": [{"smiles": "CCN(N=Nc1nonc1N)c1nonc1N", "inhibition": "inactive: 5.37%"}, {"smiles": "O=[N+]([O-])c1cc([N+](=O)[O-])c(CCN2CCOCC2)c([N+](=O)[O-])c1", "inhibition": "inactive: 11.3%"}, {"smiles": "Cc1cc(SC(NC(=O)c2ccc(F)cc2)C(Cl)(Cl)Cl)ncn1", "note": "(stereo not drawn)", "inhibition": "inactive: -13.8%"}, {"smiles": "CCOP(=O)(Nc1ccccc1)OCC", "inhibition": "inactive: -3.33%"}, {"smiles": "Cc1ccc(NP(=O)(Oc2ccccc2F)Oc2ccccc2F)nc1", "inhibition": "inactive: -1.69%"}, {"smiles": "CN(C(=O)Cc1ccc(Cl)c(Cl)c1)[C@H]1CCCC[C@@H]1N1CCCC1", "inhibition": "inactive: 8.11%"}, {"smiles": "CC(=O)Nc1ccc([As](=O)(O)O)cc1", "inhibition": "inactive: 4.88%"}, {"smiles": "O=C(O)c1ccccc1[As](=O)(O)O", "inhibition": "inactive: 9.63%"}, {"smiles": "O=P(Nc1nc2ccc(Cl)cc2s1)(c1ccccc1)c1ccccc1", "inhibition": "inactive: -4.69%"}, {"smiles": "Nc1cc(N)c2nonc2c1[N+](=O)[O-]", "inhibition": "inactive: 4.57%"}, {"smiles": "CC(C)CC(=O)NC(Sc1ccc(Cl)cc1)C(Cl)(Cl)Cl", "note": "(stereo not drawn)", "inhibition": "inactive: 3.02%"}, {"smiles": "Oc1ccccc1CNc1ccccn1", "inhibition": "inactive: -4.43%"}, {"smiles": "O=C(NC(Sc1ccncn1)C(Cl)(Cl)Cl)c1ccccc1", "note": "(stereo not drawn)", "inhibition": "inactive: 1.42%"}, {"smiles": "Cc1c2non([O-])c-2c(C)[n+](=O)[n+]1[O-]", "inhibition": "inactive: 1.98%"}, {"smiles": "COc1ccccc1OP(=O)(Nc1ccc(C)cn1)Oc1ccccc1OC", "inhibition": "inactive: -6.39%"}, {"smiles": "Cc1ccc(OP(=O)(Nc2nccs2)Oc2ccc(C)cc2)cc1", "inhibition": "inactive: 0.397%"}, {"smiles": "CN1CCCC(OC(=O)C(c2ccccc2)c2ccccc2)C1", "note": "(stereo not drawn)", "inhibition": "inactive: -2.86%"}, {"smiles": "Clc1ccc(Cl)c(NC2=NCC(CBr)S2)c1", "note": "(stereo not drawn)", "inhibition": "inactive: 1.48%"}, {"smiles": "NC(=O)c1cc([N+](=O)[O-])cc([N+](=O)[O-])c1N", "inhibition": "inactive: -7.92%"}, {"smiles": "CN(C(=O)Cc1ccc(Cl)c(Cl)c1)[C@H]1CCCC[C@H]1N1CCCC1", "inhibition": "inactive: -7.33%"}, {"smiles": "Cc1ccc(N/C(=N/P(=O)(N2CCOCC2)N2CCOCC2)N2CCOCC2)cc1", "inhibition": "inactive: 6.28%"}, {"smiles": "CC(C)=N/N=C(\\N)N[N+](=O)[O-]", "inhibition": "inactive: -4.66%"}, {"smiles": "CN(C)C(=O)OCCc1n(C)cc[n+]1C", "inhibition": "inactive: -9.37%"}, {"smiles": "CC1CCN(C(=O)Oc2c(Cl)cc(Cl)c3cccnc23)CC1", "inhibition": "inactive: -4.43%"}, {"smiles": "Nc1ccc([As](=O)(O)c2ccc(N)cc2)cc1", "inhibition": "inactive: -1.81%"}, {"smiles": "C[N+]1=C2C=CC=CC=C2SC12C([N+](=O)[O-])=CC([N+](=O)[O-])=C[C-]2[N+](=O)[O-]", "note": "(stereo not drawn)", "inhibition": "inactive: 5.93%"}, {"smiles": "CCN(/C(=N/P(=O)(N1CCOCC1)N1CCOCC1)N1CCOCC1)c1ccc(OC)cc1", "inhibition": "inactive: -4.16%"}, {"smiles": "O=[N+]([O-])c1cccc2n[nH]nc12", "inhibition": "inactive: 4.34%"}]}]}
